From paper PMC5814206 (2017)

Target: EGFR (Homo sapiens, UniProt P00533)
Experiment: flow

B1: nimotuzumab (antibody, V domains shown)
VH: QVQLQQSGAEVKKPGSSVKVSCKASGYTFTNYYIYWVRQAPGQGLEWIGGINPTSGGSNFNEKFKTRVTITADESSTTAYMELSSLRSEDTAFYFCTRQGLWFDSDGRGFDFWGQGTTVTVSS
VL: DIQMTQSPSSLSASVGDRVTITCRSSQNIVHSNGNTYLDWYQQTPGKAPKLLIYKVSNRFSGVPSRFSGSGSGTDFTFTISSLQPEDIATYYCFQYSHVPWTFGQGTKLQIT
With B1 the Kd was 9.7 nM and 4.5 nM and 10.4 nM and 9.8 nM.

Several values for one entry are separate records, joined by “and”; a condition that tells them apart may be missing. Equal entries are not always repeated.
